In PubChem BioAssay (NCI):
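Compound exposure: 48 hours, 5 concentrations, 96-well plates. GI50 marks 50% less growth. TGI is the concentration that stops growth completely.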

Test system: MDA-MB-468 breast
Assay: NCI anticancer screen, dose series, 48 h

Question: How did the GI50 turn out when COc1cccc([As]=O)c1 (configuration not stated) was run?
Answer: Its GI50 is 142 nM.

Question: What about the TGI of the same compound?
Answer: The TGI was 309 nM.
